Protein sequences, listed by entry. Tags and fused reporters are not part of them.
UniProt P21452, whole entry: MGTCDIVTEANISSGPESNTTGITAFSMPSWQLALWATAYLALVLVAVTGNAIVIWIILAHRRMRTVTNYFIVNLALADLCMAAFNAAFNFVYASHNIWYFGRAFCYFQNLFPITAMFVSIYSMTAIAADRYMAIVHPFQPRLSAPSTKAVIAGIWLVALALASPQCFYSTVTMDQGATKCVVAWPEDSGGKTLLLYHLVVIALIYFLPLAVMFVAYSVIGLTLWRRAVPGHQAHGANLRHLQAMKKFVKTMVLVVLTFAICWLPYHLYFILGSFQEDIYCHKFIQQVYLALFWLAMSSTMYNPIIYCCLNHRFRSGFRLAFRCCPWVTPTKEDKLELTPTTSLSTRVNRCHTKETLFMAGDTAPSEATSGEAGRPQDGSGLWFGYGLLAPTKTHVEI

According to patent US5710169A, “Therapeutic heterocycles” (Zeneca Limited, priority 1994, dated 1998):

Target: human NK2 receptor (Homo sapiens, UniProt P21452)
Experiment: Neurokinin A (NKA) Receptor Binding Assay (Test B), human NK2 receptor expressed in MEL cells
Conditions: read-out: IC50 versus ^3 H-NKA binding to MELM, standard compound, initial use of assay
From the text: Neurokinin A (NKA) Receptor Binding Assay (Test B)
The selectivity of a Compound for binding at the NK1 and the NK2 receptors may be shown by determining its binding at other receptors using standard assays, for example, one using a tritiated derivative of NKB in a tissue preparation selective for NK3 receptors.

IC50: 30 nM
Structure (SMILES): CSCC[C@@H]1NC(=O)[C@H](CC(C)C)NC(=O)CNC(=O)[C@H](Cc2ccccc2)NC(=O)[C@H](Cc2c[nH]c3ccccc23)NC(=O)[C@H](CCC(N)=O)NC1=O
